Reference: publication PMC7640899

Tests used:
[1] = target: unmethylated mononucleosome (wild-type H3, human histones, 147 bp Widom 601 DNA) (human) (UniProt Q71DI3); assay: MST
[2] = target: full-length dimethylated histone H3K4me2 (human) (UniProt Q71DI3)
[3] = target: H3(1–21)K4me2 peptide (human) (UniProt Q71DI3)

full-length lysine specific demethylase 1 (LSD1) (from UniProt O60341 1-852) (enzyme)
pKd [1]: 5.21 | KM of demethylation, continuous horseradish peroxidase-coupled assay [2]: 3.2 µM | KM of demethylation, continuous horseradish peroxidase-coupled assay [3]: 15.1 µM

pKd: −log10 of the molar value.
